We go through 11 compounds from patent US12565501B2, “Muscarinic acetylcholine M1 receptor antagonists” (Contineum Therapeutics, Inc., priority 2019, dated 2026).

By UniProt entry, the sequences of proteins in these tests, tags left out.
UniProt P11229, whole entry: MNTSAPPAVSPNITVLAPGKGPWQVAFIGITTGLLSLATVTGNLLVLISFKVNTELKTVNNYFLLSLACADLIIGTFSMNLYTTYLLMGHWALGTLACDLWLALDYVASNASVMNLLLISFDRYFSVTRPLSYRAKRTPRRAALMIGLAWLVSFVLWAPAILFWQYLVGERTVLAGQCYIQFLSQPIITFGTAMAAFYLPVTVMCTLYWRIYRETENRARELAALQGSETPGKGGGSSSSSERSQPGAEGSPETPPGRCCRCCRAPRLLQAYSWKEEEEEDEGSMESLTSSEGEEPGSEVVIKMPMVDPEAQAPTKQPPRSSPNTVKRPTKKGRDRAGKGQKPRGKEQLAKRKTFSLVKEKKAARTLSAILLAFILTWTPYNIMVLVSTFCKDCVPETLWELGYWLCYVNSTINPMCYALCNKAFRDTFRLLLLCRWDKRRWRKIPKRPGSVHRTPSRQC
UniProt P20309, whole entry: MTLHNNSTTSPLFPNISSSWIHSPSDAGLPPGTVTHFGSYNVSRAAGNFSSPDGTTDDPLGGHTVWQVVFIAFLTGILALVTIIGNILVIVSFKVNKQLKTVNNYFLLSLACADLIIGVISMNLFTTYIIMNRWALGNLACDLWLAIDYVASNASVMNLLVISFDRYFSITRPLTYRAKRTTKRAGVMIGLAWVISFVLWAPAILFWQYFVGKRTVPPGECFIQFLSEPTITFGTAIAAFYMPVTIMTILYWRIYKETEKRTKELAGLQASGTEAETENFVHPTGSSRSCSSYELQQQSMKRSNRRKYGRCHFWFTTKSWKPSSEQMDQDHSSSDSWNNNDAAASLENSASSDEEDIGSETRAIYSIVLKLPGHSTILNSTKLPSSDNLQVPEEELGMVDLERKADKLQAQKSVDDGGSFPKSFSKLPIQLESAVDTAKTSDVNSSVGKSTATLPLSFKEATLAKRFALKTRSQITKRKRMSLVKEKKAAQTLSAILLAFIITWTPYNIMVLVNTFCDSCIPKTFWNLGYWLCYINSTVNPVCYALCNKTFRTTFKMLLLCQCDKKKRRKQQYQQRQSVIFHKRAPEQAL
UniProt P08172, whole entry: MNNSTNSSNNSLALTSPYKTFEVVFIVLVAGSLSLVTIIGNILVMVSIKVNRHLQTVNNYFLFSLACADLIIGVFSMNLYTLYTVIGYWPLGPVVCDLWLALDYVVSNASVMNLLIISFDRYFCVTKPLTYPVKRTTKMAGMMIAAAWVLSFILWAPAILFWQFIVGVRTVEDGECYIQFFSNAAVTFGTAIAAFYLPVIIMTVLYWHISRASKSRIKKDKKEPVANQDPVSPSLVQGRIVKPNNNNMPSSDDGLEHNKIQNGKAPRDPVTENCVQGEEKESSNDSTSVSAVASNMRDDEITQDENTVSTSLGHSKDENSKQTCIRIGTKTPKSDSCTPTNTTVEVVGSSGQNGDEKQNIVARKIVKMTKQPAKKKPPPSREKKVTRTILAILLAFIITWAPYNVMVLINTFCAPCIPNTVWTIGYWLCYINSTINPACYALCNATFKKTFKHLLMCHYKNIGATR
UniProt P08173, whole entry: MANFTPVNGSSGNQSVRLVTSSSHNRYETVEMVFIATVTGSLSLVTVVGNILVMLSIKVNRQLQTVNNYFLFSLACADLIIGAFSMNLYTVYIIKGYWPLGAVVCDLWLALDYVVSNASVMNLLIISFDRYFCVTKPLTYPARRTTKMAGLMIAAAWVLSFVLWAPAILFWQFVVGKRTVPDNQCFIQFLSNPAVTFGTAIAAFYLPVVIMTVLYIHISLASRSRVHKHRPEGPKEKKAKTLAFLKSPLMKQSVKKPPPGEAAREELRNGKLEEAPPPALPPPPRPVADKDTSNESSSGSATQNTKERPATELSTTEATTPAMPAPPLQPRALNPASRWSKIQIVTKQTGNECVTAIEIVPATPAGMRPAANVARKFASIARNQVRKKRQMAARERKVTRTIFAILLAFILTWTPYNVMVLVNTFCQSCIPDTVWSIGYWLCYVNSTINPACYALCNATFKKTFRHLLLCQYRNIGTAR

The target of one assay is human M1 receptor (Homo sapiens, UniProt P11229). Briefly: In vitro functional assay of muscarinic acetylcholine receptor activity (aequorin calcium flux, reversal of EC80 acetylcholine response). As to conditions: read-out: M1 IC50; CHO-K1 cells stably expressing human M1 receptor with aequorin; acetylcholine at EC80; calcium flux (luminescence). In general terms: Calcium flux is commonly read through the fluorescence of an indicator in the cells.

A further assay concerns the target human M3 receptor (Homo sapiens, UniProt P20309). Briefly: In vitro functional assay, reversal of EC80 acetylcholine response in CHO-K1 aequorin cells. The assay is classed as cell-based. Particulars: read-out: M3 IC50, CHO-K1 cells stably expressing human M3 receptor with aequorin. On the procedure: (§1) CHO-K1 cells stably expressing human M1 receptor with aequorin (Perkin Elmer) were grown in F12 media (Gibco) containing 10% FBS (ATCC), 0.4 mg/mL geneticin (Sigma-Aldrich) and 0.25 mg/mL Zeocin (Invitrogen). Cells were grown as per the manufacturer's protocol. For compound testing, cells were grown to confluency and detached gently with Accutase (Sigma-Aldrich) followed by centrifugation for 5 min at 150× g. Cells were then re-suspended in assay buffer (i.e. DMEM/F-12 HEPES without phenol red (Invitrogen) with 0.1% BSA (Sigma-Aldrich)) at a density of 5×10^6 cells/ml. Under sterile conditions, 5 μM coelenterazine (Invitrogen) was added to the cells, mixed, then incubated at room temperature protected from light, with gentle agitation, for 4 h.
(§2) Primary compound plates were prepared in 100% DMSO in opaque 96-well plates (VWR) and serially diluted in half log increments. Secondary compound plates were prepared at 3× concentration in assay buffer. Compounds were added to white, clear bottom tissue culture treated 96-well plates (Fisher Scientific). Coelenterazine-loaded cells were then added at 5×10^5 cells/well.
(§3) Compounds and cells were incubated at room temperature for 30 min in the dark. Acetylcholine at the EC80 concentration was added and calcium flux measured using a FlexStation 3 (Molecular Devices). Sigmoidal dose-response curves were generated by measuring luminescence over 40 sec and calculating the area under the curve. Dose response curves and IC50 values were generated using Prism (GraphPad). Compounds were tested at a final concentration range of 100 μM to […] in 0.1% DMSO.
(§4) CHO-K1 cells stably expressing human M2, M3 and M4 receptors, respectively, with aequonin (Perkin Elmer) were used to assess a test compound's ability to dose-dependently reverse the EC80 acetylcholine response. The IC50 of the compounds was calculated from the dose response curve.

Another assay deals with human M2 receptor (Homo sapiens, UniProt P08172). The assay is described as above. The assay is classed as cell-based. As to conditions: read-out: M2 IC50, CHO-K1 cells stably expressing human M2 receptor with aequorin. How it is done:
as §1, §2, §3, §4

Another assay has as its target human M4 receptor (Homo sapiens, UniProt P08173). The description is as above. Particulars: read-out: M4 IC50, CHO-K1 cells stably expressing human M4 receptor with aequorin. It is filed as cell-based. How it is done:
as §1, §2, §3, §4

`Cc1cc(C2(OCC(=O)N3CC4CCC(C3)N4c3ccc(C#N)cn3)CCC2)ccn1`: the 50% inhibitory concentration (IC50) at human M1 receptor is 0.01 to 0.1 µM.

`N#Cc1ccc(N2C3CCC2CN(C(=O)COC2(c4ccnc(Br)c4)CCC2)C3)nc1`: on human M1 receptor, the IC50 was 0.01 to 0.1 µM.

For the compound `CC(NCCC(=O)N1CC2CCC(C1)N2c1ccc(C#N)cn1)c1cccc2ncccc12` (single isomer, unassigned), the IC50 was less than 0.01 µM at human M1 receptor, 1 to 10 µM at human M3 receptor, 1 to 10 µM at human M2 receptor and 1 to 10 µM on human M4 receptor. `COc1c(F)cccc1C(C)NCC(=O)N1CC2CCC(C1)N2c1ccc(C#N)cn1` (single isomer, unassigned) [Example 319-entA]: the IC50 on human M1 receptor is less than 0.01 µM. The same measure, in the same setting: the figure for `COc1c(F)cccc1C(C)NCC(=O)N1CC2CCC(C1)N2c1ccc(C#N)cn1` (single isomer, unassigned) [Example 319-entB] is 0.1 to 1 µM; for `N#Cc1ccc(N2C3CCC2CN(C(=O)CCNC(c2ccc(F)c(F)c2)C(F)F)C3)nc1` (single isomer, unassigned) [Example 320-entA] it is 0.01 to 0.1 µM; for `N#Cc1ccc(N2C3CCC2CN(C(=O)CCNC(c2ccc(F)c(F)c2)C(F)F)C3)nc1` (single isomer, unassigned) [Example 320-entB] it is less than 0.01 µM.

`CC(OCC(=O)N1CC2CCC(C1)N2c1ccc(C#N)cn1)c1cccc2ncnn12` (single isomer, unassigned) [Example 321-entA]: at human M1 receptor, the IC50 lay in the range of 0.1 to 1 µM. For the compound `CC(OCC(=O)N1CC2CCC(C1)N2c1ccc(C#N)cn1)c1cccc2ncnn12` (single isomer, unassigned) [Example 321-entB], the IC50 at human M1 receptor was less than 0.01 µM; on human M3 receptor, 0.1 to 1 µM; on human M2 receptor, 1 to 10 µM. With `COc1cccc(C(CO)CCC(=O)N2CC3CCC(C2)N3c2ccc(C#N)cn2)c1` (single isomer, unassigned) [Example 322-entA], the IC50 on human M1 receptor was less than 0.01 µM. In the case of `COc1cccc(C(CO)CCC(=O)N2CC3CCC(C2)N3c2ccc(C#N)cn2)c1` (single isomer, unassigned) [Example 322-entB], the IC50 on human M1 receptor lay within 0.1 to 1 µM.

Broadly, the IC50 is the concentration that inhibits the measured activity by half.
